Experimental data taken from patent US20260199426A1, “CYCLIC LIPOPEPTIDE ANTIBIOTIC COMPOUNDS FOR USE IN THE TREATMENT OF PROTEIN AGGREGATION DISEASE” (DEUTSCHES ZENTRUM FÜR NEURODEGENERATIVE ERKRANKUNGEN E. V., priority 2022, published 2026).

Tests used:
[1] = target: 2N4R Tau fibrils (Homo sapiens, UniProt P10636); assay: Saturation transfer difference (STD) NMR with Tau fibrils; details: 48-fold excess of Ramoplanin A2 over fibrils, 37° C.
[2] = target: T1, medin protein (Homo sapiens, UniProt Q08431); assay: Medin aggregation assay (ThT, TEM); details: 20 μM medin monomers, 30° C.
T1 sequence (Q08431 268-317 limits assumed): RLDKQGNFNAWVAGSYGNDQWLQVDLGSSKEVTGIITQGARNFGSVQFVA

[3] = system: TGFBI peptide; assay: TGFBI peptide aggregation assay (ThT, TEM); details: 85 μM TGFBI monomers, 37° C.
[4] = target: 2N4R Tau (Homo sapiens, UniProt P10636); assay: Seeded Tau aggregation assay (ThT fluorescence, TEM of the fibrils formed); details: 25 μM 2N4R Tau monomers, 1% (v/v) fibril seeds, 37° C.

`CC(C)C/C=C/C=C\C(=O)NC(CC(N)=O)C(=O)NC1C(=O)NC(c2ccc(O)cc2)C(=O)NC(CCCN)C(=O)NC(C(C)O)C(=O)NC(c2ccc(O)cc2)C(=O)NC(c2ccc(O)cc2)C(=O)NC(C(C)O)C(=O)NC(Cc2ccccc2)C(=O)NC(CCCN)C(=O)NC(c2ccc(OC3OC(CO)C(O)C(O)C3OC3OC(CO)C(O)C(O)C3O)cc2)C(=O)NC(C(C)O)C(=O)NC(c2ccc(O)cc2)C(=O)NCC(=O)NC(CC(C)C)C(=O)NC(C)C(=O)NC(c2ccc(O)c(Cl)c2)C(=O)OC1C(N)=O` (stereo not shown) [Ramoplanin A2] ({Octa(2Z,4E)dienoyl(7-Me)}-N[X1][Hpg][Orn]T[Hpg][Hpg]TF[Orn][X2]T[Hpg]GLA[ξPhg(3-Cl-4-OH)]; ester 2-C; configuration not given here) was tested, and the “binding to Tau fibrils (STD NMR)” value [1] was “STD effects”, the “in vitro aggregation of medin protein (ThT)” value [2] was “inhibits the in vitro aggregation of medin protein” and the “in vitro aggregation of TGFBI peptide (ThT)” value [3] was “inhibits the in vitro aggregation of TGFBI peptide”. For the same compound, the “seeded Tau fibrillization in vitro (ThT fluorescence)” value [4] was “inhibits seeded Tau fibrillization in vitro”.

*1 amine or outer side, *2 acyl side, *3 side chain or, on linkers, in order; H or OH if unused. Where a SMILES comes first, the peptide text is derived from it. Bridges are numbered along the chain shown (N, C = ends). [ ]: non-standard residue; d: D form. The star is where a group is joined. ξ: configuration not given here. X2 = O=C(C(N[*:1])c1ccc(OC2OC(CO)C(O)C(O)C2OC2OC(CO)C(O)C(O)C2O)cc1)[*:2]; Octa(2Z,4E)dienoyl(7-Me) = CC(C)C/C=C/C=C\C(=O)*; ξPhg(3-Cl-4-OH) = NC(C(=O)O)c1ccc(O)c(Cl)c1; X1 = NC(=O)C(O[*:3])C(N[*:1])C(=O)[*:2]; Hpg = N[CH](C(=O)O)c1ccc(O)cc1; Orn = NCCC[CH](N)C(=O)O
